The chains behind the UniProt entries cited, without tags or fusion partners. Residues count along the entry.
UniProt P01375, 77-233 limits assumed: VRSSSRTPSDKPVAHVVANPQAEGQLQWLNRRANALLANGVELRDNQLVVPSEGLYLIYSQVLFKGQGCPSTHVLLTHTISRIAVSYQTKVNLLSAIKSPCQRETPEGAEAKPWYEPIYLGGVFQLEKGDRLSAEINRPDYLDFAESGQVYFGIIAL

According to patent US20030064070A1 (Janssen / Centocor, published 2003):

Key:
[1] = biological target: recombinant human TNFα (rhTNF) (human) (UniProt P01375); assay: cell-based or functional assay
[2] = biological target: T1, recombinant human TNFα (rhTNF) (human, UniProt P01375 77-233); assay: Scatchard analysis, direct binding of 125I-labelled antibody to immobilized rhTNFα in a 96-well plate
T1 construct: Several commercial sources were used in the different assays; also called rhTNFα; hTNFα

## chimeric A2 (cA2) anti-TNF antibody
[1]
  IL-6 in supernatant of FS-4 fibroblasts, TNF 7.5 ng/ml, antibody 4 µg/ml: 0.3 ng/mL
  plasma clotting time with HUVEC lysate, TNF 25 ng/ml, antibody 0.12 µg/ml: 118 s
  plasma clotting time with HUVEC lysate, TNF 25 ng/ml, antibody 0.37 µg/ml (row printed as 'A2'): 153 s
  plasma clotting time with HUVEC lysate, TNF 25 ng/ml, antibody 1.10 µg/ml: 145 s
  plasma clotting time with HUVEC lysate, TNF 25 ng/ml, antibody 3.30 µg/ml: 147 s
  plasma clotting time with HUVEC lysate, TNF 25 ng/ml, antibody 10.00 µg/ml: 185 s
  plasma clotting time with HUVEC lysate, TNF 250 ng/ml, antibody 0.12 µg/ml: 64 s
  plasma clotting time with HUVEC lysate, TNF 250 ng/ml, antibody 0.37 µg/ml (row printed as 'A2'): 73 s
  plasma clotting time with HUVEC lysate, TNF 250 ng/ml, antibody 1.10 µg/ml: 106 s
  plasma clotting time with HUVEC lysate, TNF 250 ng/ml, antibody 10.00 µg/ml: 114 s

B1: mouse anti-human TNF IgG1 mAb designated A2 (antibody, V domains shown)
VH: EVKLEESGGGLVQPGGSMKLSCVASGFIFSNHWMNWVRQSPEKGLEWVAEIRSKSINSATHYAESVKGRFTISRDDSKSAVYLQMTDLRTEDTGVYYCSRNYYGSTYDYWGQGTTLTVS
VL: DILLTQSPAILSVSPGERVSFSCRASQFVGSSIHWYQQRTNGSPRLLIKYASESMSGIPSRFSGSGSGTDFTLSINTVESEDIADYYCQQSHSWPFTFGSGTNLEVK
[2]
  Ka: 5e+08 M⁻¹
